In data set [1] the target is T1, NOD1 (Homo sapiens, UniProt Q9Y239).
T1 sequence (Q9Y239 1-953): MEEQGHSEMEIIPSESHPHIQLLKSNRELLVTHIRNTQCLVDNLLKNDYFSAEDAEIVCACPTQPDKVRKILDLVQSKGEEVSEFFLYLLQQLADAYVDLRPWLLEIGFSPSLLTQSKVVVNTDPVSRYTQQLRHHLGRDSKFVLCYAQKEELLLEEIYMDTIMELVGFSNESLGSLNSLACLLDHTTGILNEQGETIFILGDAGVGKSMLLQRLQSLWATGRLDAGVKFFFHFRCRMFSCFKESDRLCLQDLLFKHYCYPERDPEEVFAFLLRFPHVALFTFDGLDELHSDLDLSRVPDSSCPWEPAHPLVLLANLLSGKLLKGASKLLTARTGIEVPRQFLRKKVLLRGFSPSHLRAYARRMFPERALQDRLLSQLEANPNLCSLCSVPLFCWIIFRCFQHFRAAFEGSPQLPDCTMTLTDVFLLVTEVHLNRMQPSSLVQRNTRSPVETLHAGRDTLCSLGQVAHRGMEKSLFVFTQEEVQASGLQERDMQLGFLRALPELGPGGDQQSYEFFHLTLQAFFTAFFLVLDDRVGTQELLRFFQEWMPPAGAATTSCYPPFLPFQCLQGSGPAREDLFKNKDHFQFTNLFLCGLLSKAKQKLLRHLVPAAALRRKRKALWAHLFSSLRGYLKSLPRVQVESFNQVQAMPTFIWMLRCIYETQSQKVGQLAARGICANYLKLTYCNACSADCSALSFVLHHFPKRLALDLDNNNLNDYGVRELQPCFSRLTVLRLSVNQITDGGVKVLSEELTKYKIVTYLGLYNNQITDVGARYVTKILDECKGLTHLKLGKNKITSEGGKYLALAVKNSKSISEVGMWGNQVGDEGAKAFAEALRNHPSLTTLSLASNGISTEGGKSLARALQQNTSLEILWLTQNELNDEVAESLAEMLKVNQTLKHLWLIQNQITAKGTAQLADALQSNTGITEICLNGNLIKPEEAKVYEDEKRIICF
Briefly: IL-8 secretion by MCF-7 cells over-expressing NOD1. To be noted: 5 μg/ml γ-tri-DAP, 24 hours, MDP and TNFα as other stimuli. The format is cell-based.

Protein sequences, listed by entry. Tags and fused reporters are not part of them.
UniProt Q9HC29, whole entry: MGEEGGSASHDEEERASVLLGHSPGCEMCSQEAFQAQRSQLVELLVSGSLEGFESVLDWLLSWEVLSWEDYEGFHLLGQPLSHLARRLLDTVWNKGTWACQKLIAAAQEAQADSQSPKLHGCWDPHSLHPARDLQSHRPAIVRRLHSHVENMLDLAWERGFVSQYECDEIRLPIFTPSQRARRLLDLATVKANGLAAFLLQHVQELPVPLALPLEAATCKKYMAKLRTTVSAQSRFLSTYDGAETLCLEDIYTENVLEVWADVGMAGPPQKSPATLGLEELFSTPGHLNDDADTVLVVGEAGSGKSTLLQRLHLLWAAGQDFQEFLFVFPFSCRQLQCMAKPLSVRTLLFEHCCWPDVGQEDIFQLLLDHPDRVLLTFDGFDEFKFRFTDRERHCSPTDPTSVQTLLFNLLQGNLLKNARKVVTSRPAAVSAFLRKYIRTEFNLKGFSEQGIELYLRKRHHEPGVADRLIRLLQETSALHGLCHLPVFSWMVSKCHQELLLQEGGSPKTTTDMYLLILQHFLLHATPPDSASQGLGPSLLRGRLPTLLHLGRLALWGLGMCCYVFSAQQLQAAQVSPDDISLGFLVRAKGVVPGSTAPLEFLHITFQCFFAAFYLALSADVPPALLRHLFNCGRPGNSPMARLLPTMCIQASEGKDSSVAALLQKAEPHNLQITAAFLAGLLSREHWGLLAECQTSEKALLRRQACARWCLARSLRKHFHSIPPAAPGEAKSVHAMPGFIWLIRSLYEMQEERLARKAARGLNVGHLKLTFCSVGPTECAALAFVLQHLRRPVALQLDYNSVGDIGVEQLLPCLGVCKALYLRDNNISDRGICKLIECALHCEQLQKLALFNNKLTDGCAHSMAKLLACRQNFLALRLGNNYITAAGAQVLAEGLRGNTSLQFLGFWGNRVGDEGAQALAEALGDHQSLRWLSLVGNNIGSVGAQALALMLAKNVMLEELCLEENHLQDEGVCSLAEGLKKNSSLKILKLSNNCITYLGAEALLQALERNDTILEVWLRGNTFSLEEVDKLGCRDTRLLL

In data set [2] the target is T1, NOD1. Briefly: THP.1 macrophage NF-κB/AP-1-inducible SEAP reporter, γ-tri-DAP. The class given is cell-based. To be noted: 5 μM compound, 5 μg/ml γ-tri-DAP, 24 h.
The target of data set [3] is T1, NOD1. Briefly: 697 pre-B leukemia cells NF-κB-luciferase reporter, γ-tri-DAP. The class given is cell-based. To be noted: 697 cells, 10 μM compound, 20 μg/ml γ-tri-DAP, 24h. Background: In a reporter assay the amount or activity of a reporter protein is the signal.
The target in data set [4] is T1, NOD1. Briefly: HEK293T ISRE-driven luciferase reporter, γ-tri-DAP. The class given is cell-based. To be noted: 5 μM compound, 10 μg/ml γ-tri-DAP, 24 hrs.
For data set [5], the target named is T1, NOD1. Briefly: Primary monocyte-derived dendritic cells activated with γ-tri-DAP. To be noted: 15 μM compound. The class given is cell-based.
The target of data set [6] is T1, NOD1. Briefly: 1D 1H-NMR ligand binding to recombinant NOD1. To be noted: 50 μM compound, 5 μM His6-Flag-NOD1.
In data set [7] the target is T1, NOD1. Briefly: ATP binding to recombinant NOD1 protein.
The target of data set [8] is T1, NOD1. Briefly: Ni/NTA pull-down of purified His6-tagged NOD1. To be noted: 20 μM compound.
The target of another data set is NOD2 (Homo sapiens, UniProt Q9HC29). Briefly: Ni/NTA pull-down from cells expressing His6-tagged NOD2. The format is cell-based. To be noted: MCF-7 cells, 5 μM compound, 16hr.
The target in data set [9] is T1, NOD1. Briefly: Endogenous NOD1 protein levels in HCT-116 cells. To be noted: HCT-116, 5 μM compound, 24 hr. The class given is cell-based.
In data set [10] the target is T2, NOD1 association with RIP2, Bid, or SGT-1 (Homo sapiens, UniProt Q9Y239).
T2 sequence (Q9Y239 1-953): T1 sequence (Q9Y239 1-953)
Briefly: NOD1 association with interacting proteins under over-expressing conditions. The format is cell-based.

The target in data set [11] is T1, NOD1. Briefly: Subcellular fractionation of MCF-7 cells stably expressing epitope-tagged NOD1. The class given is cell-based. To be noted: MCF-7, 5 μM compound, 24hr.

Regarding `Cc1ccc(S(=O)(=O)n2c(N)nc3ccccc32)cc1` [CID-1088438], the “IL-8 production induced by NOD1 ligand” value at NOD1 [1] was “most potent of the analogs”. At NOD1 [2], the “NF-κB-inducible SEAP activity induced by γ-tri-DAP” value is listed as “inhibition by CID-1088438 was highly reproducible”. In addition, the “NF-κB activity induced by NOD1 ligand γ-tri-DAP” value at NOD1 [3] is on record as “is inhibited”. In addition, the “ISRE-driven reporter gene activity induced by γ-tri-DAP” value on NOD1 [4] is “suppressed”. The “cytotoxicity in dendritic cells” value on NOD1 [5] is “without causing cytoxicity”. Besides, at NOD1 [5] (5 μg/ml γ-tri-DAP, 4hr, quantitative PCR), the “expression of IL-1β, IL-6 and TNFα elicited by γ-tri-DAP” value was “inhibited”. On NOD1 [5] (5 μg/ml γ-tri-DAP, 24hr, flow cytometry), the “cell surface expression of co-stimulatory molecules CD83, CD86 and HLA-DR elicited by γ-tri-DAP” value is recorded as “reduced”. Also, the “NOD1 expression levels in dendritic cells” value on NOD1 [5] (4hr, quantitative PCR) was “No significant changes”. Further, the “compound proton (1H) signal intensity in the presence of NOD1” value at NOD1 [6] was “only suppressed in the presence of NOD1”. The “ATP binding to recombinant NOD1 protein” value on NOD1 [7] was “did not interfere”. On NOD1 [8], the “relative amount of His6-NOD1 protein bound to nickel-chelating resin (Ni/NTA)” value was “markedly increased”. For the same molecule, the “efficiency of His6-myc-NOD2 protein pull-down by Ni/NTA” value at NOD2 is “no effect”. Also, the “levels of endogenous NOD1 protein in cells cultured with γ-tri-DAP” value at NOD1 [9] (10 μg/ml γ-tri-DAP) is reported as “but not active compound”. Moreover, the “levels of endogenous NOD1 protein in unstimulated cells” value on NOD1 [9] is “no clear difference”. In addition, in data set [10], the “NOD1 association with RIP2, Bid, or SGT-1” value is listed as “did not interfere”. Besides, on NOD1 [11], the “membrane localization of RIP2” value is given as “reduced membrane localization”. For the same molecule, the “NOD1 protein in the membrane fraction” value at NOD1 [11] (independently of γ-tri-DAP induction) was “induced enrichment”.
